Structures can show the parent of a compound that is named as a salt.
Key:
[1] = tested on: mice; test: Phenylquinone Writhing (P.Q.W.) test, analgesic activity; type: in vivo, mouse; conditions: 0.5 h, po, read-out: P.Q.W. ED50 (analgesic ED50)
Procedure: The analgesic activity of the compounds of the present invention is conveniently determined in a phenylquinone writhing test, as described below:
Phenylquinone Writhing (P.Q.W.):
results given in: mg/kg po/mouse
Groups of at least 10 mice are given phenyl-p-benzoquinone 2.5 mg/kg intraperitoneally 30 minutes after oral administration of graded doses of the test substance. Two or more dose levels are used for each compound. For scoring purposes, a "writhe" is defined as stretching, twisting of a hindleg inward, or contraction of the abdomen. The total number of writhes for each animal, treated and control animals side-by-side, are counted over a 30-minute time interval. […] The P.Q.W. test is widely used as an indicator of potential analgesic activity in man, especially for non-narcotic substances.

[2] = tested on: mice; test: Decreased Locomotor Activity (L.M.A.), primary rodent screen; type: in vivo, mouse; conditions: po, read-out: L.M.A. ED50 (decreased locomotor activity)
[3] = tested on: mice; test: Ptosis (Pto.), primary rodent screen; type: in vivo, mouse; conditions: po, read-out: Pto. ED50 (ptosis)
[4] = in vivo
[5] = Solubility in water; type: physicochemical
[6] = mouse, phenyl-p-benzoquinone 2.5 mg/kg ip 30 min after dose, 30-minute count
[7] = mouse, oral dose producing score of at least -1

CC(Cl)=CCN1CC[C@@H]2[C@@H](C1)c1cccc3c1N2c1ccccc1CC3 (racemic) [Example 1, (±)-trans-3-(3-chloro-2-butenyl)-1,2,3,4,4a,8,9,14a-octahydropyrido[4',3':2,3]indolo[1,7-ab][1]benzazepine]
ED50 [1, 6]: 86 mg/kg
ED50 [2, 7]: > 300 mg/kg
ED50 ([3]; mouse, passive ptosis): > 300 mg/kg
LD50 [4]: > 300 mg/kg

CC(=O)CCN1CC[C@@H]2[C@@H](C1)c1cccc3c1N2c1ccccc1CC3 (racemic) [Example 6, (±)-4-(trans-1,2,3,4,4a,8,9,14a-octahydropyrido[4',3':2,3]indolo[1,7-ab][1]benzazepin-3-yl)-2-butanone]
ED50 [1, 6]: 1.25 mg/kg
ED50 [2, 7]: 8 mg/kg
ED50 ([3]; mouse, passive ptosis): 7.1 mg/kg
LD50 [4]: > 324 mg/kg

CC(=O)CCCN1CC[C@@H]2[C@@H](C1)c1cccc3c1N2c1ccccc1CC3 (racemic) [Example 7, (±)-5-(trans-1,2,3,4,4a,8,9,14a-octahydropyrido[4',3':2,3]indolo[1,7-ab][1]benzazepin-3-yl)-2-pentanone]
ED50 [1, 6]: 1.4 mg/kg
ED50 [2, 7]: 2.6 mg/kg
ED50 ([3]; mouse, passive ptosis): 1.3 mg/kg
LD50 [4]: > 324 mg/kg

O=C(CCN1CC[C@@H]2[C@@H](C1)c1cccc3c1N2c1ccccc1CC3)c1ccccc1 (racemic) [Example 8, (±)-3-(trans-1,2,3,4,4a,8,9,14a-octahydropyrido[4',3':2,3]indolo[1,7-ab][1]benzazepin-3-yl)propiophenone]
ED50 [1, 6]: 26 mg/kg
ED50 [2, 7]: 200 mg/kg
ED50 ([3]; mouse, passive ptosis): 20 mg/kg
LD50 [4]: > 324 mg/kg

CC(=O)CN1CC[C@@H]2[C@@H](C1)c1cccc3c1N2c1ccccc1CC3 (relative stereo) [Example 3, (±)-trans-3-acetonyl-1,2,3,4,4a,8,9,14a-octahydropyrido[4',3':2,3]indolo[1,7-ab][1]benzazepipine]
ED50 [1, 6]: 2 mg/kg
ED50 [2, 7]: 2 mg/kg
ED50 ([3]; mouse, passive ptosis): 4 mg/kg
LD50 [4]: > 300 mg/kg

c1ccc2c(c1)CCc1cccc3c4c(n-2c13)CCNC4 [1,2,3,8,9-hexahydropyrido[4',3':2,3]=indolo[1,7ab][1]benzazepine hydrochloride]
solubility in water [5]: only very slightly soluble in water

CN(C)CCCN1c2ccccc2Sc2ccc(Cl)cc21 [chlorpromazine (HCl), chlorpromazine, reference compound]
ED50 ([2]; Mus musculus): 5 mg/kg
ED50 ([3]; Mus musculus): 6 mg/kg

COc1ccc2c3c1O[C@H]1[C@@H](O)C=C[C@H]4[C@@H](C2)N(C)CC[C@@]341 [codeine phosphate, reference compound]
ED50 ([1]; Mus musculus): 19 mg/kg

Reference: US4018930A, “Substituted indolobenzazepines” (Endo Laboratories, Inc., priority 1975, dated 1977)
